## scFv variants of Ab-14 (heavy chain) against a SARS-CoV-2 spike peptide

Target: peptide PDVDLGDISGINAS, taken from heptad repeat 2 (HR2) of SARS-CoV-2 spike.

Parent scFv Ab-14: VH joined to VL by a 15-residue (Gly4Ser)3 linker. Changes lie in the heavy chain CDRs alone.
VH: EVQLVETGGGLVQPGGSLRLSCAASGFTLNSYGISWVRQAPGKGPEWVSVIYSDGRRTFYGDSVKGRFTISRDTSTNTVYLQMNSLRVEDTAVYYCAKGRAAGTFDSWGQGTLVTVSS
VL: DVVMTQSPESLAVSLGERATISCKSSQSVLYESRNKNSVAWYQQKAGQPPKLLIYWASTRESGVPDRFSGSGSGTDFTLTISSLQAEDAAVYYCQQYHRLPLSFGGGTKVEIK

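Designed CDR sequences, proposed from the first random library and measured here. Several design methods are mixed in this list. In AlphaSeq, yeast of one mating type display the scFv and yeast of the other type display the target. Pairs that bind mate more often; barcode pairs of the diploids are counted by sequencing. Scores were corrected for input abundance and mapped to Kd with protein pairs of known affinity run in the same pool. Mating was done six times.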

The parent's heavy chain CDRs are GFTLNSYGIS, VIYSDGRRTFYGDSVK, GRAAGTFDS; each variant's own CDRs replace them letter for letter.
This list holds designs with more than six substitutions.
Values are apparent Kd, the geometric mean of the replicates that gave a signal; lower means stronger binding.
A pair that was not seen in any replicate is written "nd"; this usually means weak binding, but a binder can also be missed.
The parent sequence was in this pool as ten entries: three were never detected, three once, and four in most replicates, with averages from 2.2 nM to 240 nM.

GFDLNEYGIS | VIYADGRRTFYADSVK | GENAGTFKF: 690 pM (6 of 6 replicates).
GFDIEEFGIS | VIYADGIRTAYAQKVK | GTIAGTFVD: 9.6 nM (6 of 6 replicates).
GFDLDEYGIS | VIYADGKRTAYADSVK | GENAGTFDV: 1.1 nM (6 of 6 replicates).
GFDLNEYGIS | VIYADGRRTFYSDSVK | GNNGGTFDI: 810 pM (6 of 6 replicates).
GEDLNEYGIS | VIYADGRRTYYDNSVK | GKFAGSFFH: nd (0 of 6 replicates).
GFDVEEYGIS | VIYADGRRSQYANSVK | GAIRGTFDS: nd (0 of 6 replicates).
GFDLNEYGIS | VIYADGMRTQYIDSVK | GNTAGTFDS: 510 pM (6 of 6 replicates).
GFDLNEYGIS | VIYADGKRTAYADSVK | GENAGTFDM: 1.8 nM (6 of 6 replicates).
GFDLNEYGIS | VIYADGMRTAYADSVK | GNNAGTFDM: 150 pM (6 of 6 replicates).
GFDLNEYGIS | VIYADGRRTFYTDSVK | GEIAGTFNV: 310 pM (6 of 6 replicates).
GFDLNEYGIS | VIYADGRRTFYSDSVK | GEVGGTFDV: 850 pM (6 of 6 replicates).
GFNLSEYGIS | VIYADGMRSNYANSVK | GHKGNFFID: nd (0 of 6 replicates).
GFNLNEYGIS | VIYADGRRKFYADSVK | GNTAGTFDM: 34 pM (6 of 6 replicates).
DFNLNEYGIS | VIYADGVRASVRDKVK | GQISGTFDT: nd (0 of 6 replicates).
GDDLNEVGIS | VIYADGVRNQYIQSVK | GHVAGTFFY: 7.0 µM (1 of 6 replicates).
GFGIDEYGIS | VIYADGQRKMYQDNVK | GNVGSLGSV: nd (0 of 6 replicates).
GFDLNEYGIS | VIYADGSRTAYTDSVK | GNVAGTFDQ: 270 pM (6 of 6 replicates).
GQDLAEYGIS | VIYADGKRTMYTNDVK | GHNGGQGKT: nd (0 of 6 replicates).
GFDLNEYGIS | VIYADGMRTAYADSVK | GKVAGTFDI: 170 pM (6 of 6 replicates).
GFDLEEMGIS | VIYADGSRKVYQDAVK | GEVSGDFDK: 320 nM (1 of 6 replicates).
GFDLNEYGIS | VIYADGMRTAYVDDVK | GTNAGTFDV: 890 pM (6 of 6 replicates).
GFNIDEYGIS | VIYADGVRTAYVDKVK | GFGQVLSLD: 30 nM (1 of 6 replicates).
GFDLNEYGIS | VIYADGIRTFYADSVK | GNAAGTFDK: 560 pM (6 of 6 replicates).
GFDLNEYGIS | VIYADGRRTAYTDSVK | GHNAGTFDL: 190 pM (6 of 6 replicates).
GFDLDEYGIS | VIYADGQRTFYADSVK | GQNAGTFDV: 1.0 nM (6 of 6 replicates).
GFDLNEYGIS | VIYADGQRTFYADSVK | GQAAGTFDM: 300 pM (6 of 6 replicates).
GFDLNEYGIS | VIYADGVRTSYADSVK | GQNAGTFDV: 780 pM (6 of 6 replicates).
GFDLNEYGIS | VIYADGVRTAYSDDVK | GQNAGTFDV: 1.6 nM (6 of 6 replicates).
GFDLNEYGIS | VIYADGRRTFYSDSVK | GTVAGTFDK: 270 pM (6 of 6 replicates).
GFDLDEYGIS | VIYADGVRTAYSDSVK | GEVAGTFDI: 840 pM (6 of 6 replicates).
GFDLNEYGIS | VIYADGVRTAYTDDVK | GNVAGTFDV: 190 pM (6 of 6 replicates).
GEGLDEYGVS | VIYADGRKQSYSDSVK | GAIAGNFDA: 820 nM (1 of 6 replicates).
GFDINEYGIS | VIYADGRRTFYADSVK | GQTAGTFDV: 500 pM (6 of 6 replicates).
GFALNEYGIS | VIYADGFRAAYTDKVK | GVTVGNFSS: 2.1 nM (6 of 6 replicates).
GDKLEDYGIS | VIYADGRRSAYVDAVK | GEYAGYFQV: nd (0 of 6 replicates).

Top 4 of the variants detected in all replicates, tightest first:

With GFNLNEYGIS | VIYADGRRKFYADSVK | GNTAGTFDM the result was 34 pM (6 of 6 replicates).
With GFDLNEYGIS | VIYADGMRTAYADSVK | GNNAGTFDM the result was 150 pM (6 of 6 replicates).
With GFDLNEYGIS | VIYADGMRTAYADSVK | GKVAGTFDI the result was 170 pM (6 of 6 replicates).
With GFDLNEYGIS | VIYADGRRTAYTDSVK | GHNAGTFDL the result was 190 pM (6 of 6 replicates).

Nonspecific signal, from three strains lacking the peptide, appeared in 1% of pairings of all heavy chain designs, centred on 120 nM (5% of these signals below 7.0 nM); values are not corrected for it.
A sequence measured in both rounds can read differently, since the two assays cover different ranges.
The authors averaged sequences with at least three values out of six and counted those with two or fewer as poor binders.

Reference: Li et al. 2023, doi:10.1038/s41467-023-39022-2. File: FLAb, binding data.